Results: ChEMBL document CHEMBL3352634 (Bioorg Med Chem Lett, 2014)
Where a chain is given by its changes, count along the chain named.

Legend:
[1] = target: T1, Peroxisome proliferator-activated receptor alpha (Homo sapiens) (UniProt Q07869); experiment: Agonist activity at wild-type human PPARalpha LBD expressed in COS7 cells after 12 hrs by Dual-Glo luciferase assay relative to control; format: cell-based; conditions: COS-7
T1 sequence (whole entry): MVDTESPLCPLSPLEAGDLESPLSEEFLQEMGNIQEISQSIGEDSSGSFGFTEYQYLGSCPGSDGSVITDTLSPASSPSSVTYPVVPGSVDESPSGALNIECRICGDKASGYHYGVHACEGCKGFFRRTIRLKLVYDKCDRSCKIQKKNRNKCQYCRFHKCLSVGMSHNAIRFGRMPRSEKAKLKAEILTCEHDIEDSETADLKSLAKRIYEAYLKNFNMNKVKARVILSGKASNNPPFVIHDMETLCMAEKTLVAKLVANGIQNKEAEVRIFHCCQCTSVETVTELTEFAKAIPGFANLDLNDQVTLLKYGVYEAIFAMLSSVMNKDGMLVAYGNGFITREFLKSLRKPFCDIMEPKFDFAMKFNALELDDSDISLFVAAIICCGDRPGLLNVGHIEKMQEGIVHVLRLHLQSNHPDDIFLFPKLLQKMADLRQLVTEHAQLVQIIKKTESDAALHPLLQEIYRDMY

[2] = system: T2, Peroxisome proliferator-activated receptor alpha (Homo sapiens), Q07869 [T279A]; experiment: Agonist activity at wild-type human PPARalpha Thr279Ala mutant expressed in COS7 cells after 12 hrs by Dual-Glo luciferase assay relative to control; format: cell-based; conditions: COS-7
T2 sequence (whole entry): T1 sequence (whole entry) with T279A

- %max [1]: 122%
- %max [2]: 90%
SMILES: CC(C)(Sc1ccc(CCN(CCCCC2CCCCC2)C(=O)NC2CCCCC2)cc1)C(=O)O
